In patent publication US4596893A (priority 1985, dated 1986) one finds IC50 data, which are given here for 1 compound.

The target in this assay is spinach chloroplastises (2. photochemical system) (Spinacia oleracea, UniProt P69560). In words: Determination of Hill-reaction inhibition. The class given is biochemical. To be noted: read-out: I50 (concentration belonging to 50% Hill-reaction inhibition); spinach chloroplast suspension, K3Fe(CN)6, 5000 lux for 20 minutes, extinction at 420 nm.

The structures appear in SMILES notation.

`Cc1cc([N+](=O)[O-])cc([N+](=O)[O-])c1O`: the IC50 amounted to 860 nM.
